Laboratory results as given in patent US20240325363A1, “COMPOSITION FOR TREATMENT OF ANTICANCER AGENT-RESISTANT CANCER” (ONCOCROSS CO.,LTD., priority 2021, published 2024).

System: HCT116 cells xenograft
Assay: HCT116 xenograft model in nude mice, tumor size
Type: in vivo, Balb/c nude mice
Details: GW8510 10 mg/kg i.p. three times a week, cetuximab 1 mg/mouse i.p. once a week
From the text: Experimental animals used were 36 6-week-old Balb/c nude mice. The experimental diet and drinking water were taken freely, and all experimental diets were stored in a refrigerator during a breeding period. The mice were pre-bred with regular feed to be adapted to a breeding environment for 7 days before the start of the experiment and then divided into a total of 4 groups. The 4 groups were divided into a control group (n=9), a gw8510 experimental group (n=9), a cetuximab experimental group (n=9), and a gw8510 and cetuximab combined experimental group (n=9). In all mice, HCT116 cells were injected with 1×10^6 S.C. at 7 weeks of age to prepare a xenograft model. When the tumor size reached 150 mm^3 in the prepared tumor transplant model, the mice were divided into GW8510 alone, cetuximab alone, and GW8510 and cetuximab combined treatment groups, respectively, and GW8510 was administered intraperitoneally at a concentration of 10 mg/kg three times a week, and cetuximab was administered intraperitoneally at a concentration of 1 mg/mouse once a week for a total of three times. The tumor size was measured using Equation of (long axis×short axis×short axis)/2 and measured three times a week at the same time.

In the case of cetuximab [reference compound], the tumor size is reported as “not reduced”.
